The target of this assay is JAK3 (Homo sapiens (Human), UniProt P52333). Kind of assay: JAK3 kinase inhibitory activity experiment (Caliper EZ reader conversion rate). To be noted: in vitro kinase assay, 30 min incubation; class key in μM. Type of assay: biochemical. How it is done: Experimental method: The 384-well plate was divided into compound wells (starting at 10 μM, diluted three times to produce 10 concentrations), positive control wells and negative control wells; kinase solution was added to compound wells and positive control wells, and 1×kinase buffer was added to negative control wells; the solution is next centrifuged for 30 seconds and incubated at room temperature for 10 min. Add 15 μL of the mixed solution of ATP and substrate, shake and mix well after centrifugation and incubate at room temperature (30 min for JAK3, 20 min for BTK). Add stop detection solution to stop the reaction, and read the conversion rate with Caliper EZ reader, Data analysis: The formula is as follows: […]
where Conversion %_sample is the conversion rate reading of the sample Conversion %_min is the average value of the negative control wells representing the conversion rate reading of the wells without enzyme addition; and Conversion %_max is the average value of the positive control wells representing the conversion rate reading of the wells without adding the compound. […]

Amino acid sequences for entries named in this document (tags omitted). A change or cut given only in a name is not applied to a line headed by its entry.
UniProt P52333: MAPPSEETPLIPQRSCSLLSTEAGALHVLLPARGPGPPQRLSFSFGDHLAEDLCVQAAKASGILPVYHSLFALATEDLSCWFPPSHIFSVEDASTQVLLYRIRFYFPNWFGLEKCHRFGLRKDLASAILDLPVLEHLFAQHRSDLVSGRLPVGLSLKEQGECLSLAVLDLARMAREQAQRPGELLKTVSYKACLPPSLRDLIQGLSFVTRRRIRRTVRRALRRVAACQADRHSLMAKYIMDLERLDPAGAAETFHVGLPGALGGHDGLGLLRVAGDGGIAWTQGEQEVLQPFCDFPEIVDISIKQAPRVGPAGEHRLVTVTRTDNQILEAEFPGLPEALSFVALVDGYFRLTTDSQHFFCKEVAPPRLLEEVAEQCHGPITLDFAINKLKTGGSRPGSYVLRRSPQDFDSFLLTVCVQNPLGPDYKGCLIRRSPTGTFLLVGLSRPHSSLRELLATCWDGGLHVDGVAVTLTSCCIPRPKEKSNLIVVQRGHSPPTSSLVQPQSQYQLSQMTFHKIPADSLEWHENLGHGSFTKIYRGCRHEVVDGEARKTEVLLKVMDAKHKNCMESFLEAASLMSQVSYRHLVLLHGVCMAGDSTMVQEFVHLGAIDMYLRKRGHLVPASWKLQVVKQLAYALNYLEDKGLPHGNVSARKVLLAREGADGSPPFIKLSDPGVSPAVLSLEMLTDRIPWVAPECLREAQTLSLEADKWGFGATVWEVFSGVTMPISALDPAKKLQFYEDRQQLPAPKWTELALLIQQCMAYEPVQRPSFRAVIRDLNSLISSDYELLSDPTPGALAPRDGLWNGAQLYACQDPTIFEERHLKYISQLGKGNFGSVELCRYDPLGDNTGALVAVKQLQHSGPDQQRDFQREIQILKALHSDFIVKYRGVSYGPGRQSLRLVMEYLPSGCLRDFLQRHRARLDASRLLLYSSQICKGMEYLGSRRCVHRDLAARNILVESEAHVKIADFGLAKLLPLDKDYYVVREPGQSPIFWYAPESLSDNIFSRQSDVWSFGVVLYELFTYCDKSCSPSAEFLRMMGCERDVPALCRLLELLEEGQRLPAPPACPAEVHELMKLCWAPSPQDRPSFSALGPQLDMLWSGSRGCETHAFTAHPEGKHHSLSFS

Regarding “(R)-N^1-(7-(1-(1-acryloylpiperidin-3-yl)-4-amino-1H-pyrazolo[3,4-d]pyrimidin-3-)benzo[d][1,3]dioxo heterocyclopenten-4)-N^3-(2,2,2-trifluoroethyl)isophthalamide [I-8]”, the IC50 is 0.05 to 0.5 µM.

For orientation: IC50 means the concentration that gives 50% inhibition.
